# US6482948B1, “Thienopyrimidine compounds and salts thereof and process for the preparation of the same” (Nippon Soda Co., Ltd., priority 1999, dated 2002)
# What was measured:
# [1] = target: PDE 1 (Ca-calmodulin activatable PDE); experiment: Phosphodiesterase inhibiting activity, PDE 1; details: read-out: Inhibition of PDE Activity: IC50 PDE 1; isozyme from dog heart; 1 μM [3H]-cAMP or [3H]-cGMP
# [2] = target: PDE 4 (cGMP non-inhibitable cAMP PDE); experiment: Phosphodiesterase inhibiting activity, PDE 4; details: read-out: Inhibition of PDE Activity: IC50 PDE 4; isozyme from dog kidney; 1 μM [3H]-cAMP or [3H]-cGMP
# [3] = system: thoracic aortas; experiment: Vasodilating activity, phenylephrine-contracted thoracic aorta ring preparations (Magnus method); details: read-out: Vasodilating Activity EC50, rat thoracic aorta ring preparations contracted with 1 μM phenylephrine, 37° C., drug added cumulatively
smiles,measurement,setting,value
CCCc1nn(C)c2c(=O)[nH]c(-c3cc(S(=O)(=O)N4CCN(C)CC4)ccc3OCC)nc12,IC50,[1],2000 nM
same,IC50,[2],> 10 µM
same,EC50,[3],6.1 nM
